The numbers were not newly measured in article PMC7961786, “Magic Peptide: Unique Properties of the LRR11 Peptide in the Activation of Leukotriene Synthesis in Human Neutrophils” (International Journal of Molecular Sciences, 2021), which cites them from elsewhere.

The subject of this data set is LTB4 receptor, BLT1; neutrophil migration. The settings on record: through interaction with BLT1; ref [57]; cited from earlier work. An excerpt: RAGE is shown to bind molecules, known as damage-associated molecular patterns (DAMPs), released by cells that die or are under conditions of inflammation.

For Soluble RAGE: Soluble RAGE, the LTB4-dependent neutrophil migration result was “inhibited LTB4-dependent neutrophil migration”.
